# Data published in patent US10266535B2 (dated 2019).
# The chains behind the UniProt entries cited, without tags or fusion partners. Where a name states a change or a piece, a line headed by the entry shows the natural chain unless it says otherwise.
# UniProt Q06187: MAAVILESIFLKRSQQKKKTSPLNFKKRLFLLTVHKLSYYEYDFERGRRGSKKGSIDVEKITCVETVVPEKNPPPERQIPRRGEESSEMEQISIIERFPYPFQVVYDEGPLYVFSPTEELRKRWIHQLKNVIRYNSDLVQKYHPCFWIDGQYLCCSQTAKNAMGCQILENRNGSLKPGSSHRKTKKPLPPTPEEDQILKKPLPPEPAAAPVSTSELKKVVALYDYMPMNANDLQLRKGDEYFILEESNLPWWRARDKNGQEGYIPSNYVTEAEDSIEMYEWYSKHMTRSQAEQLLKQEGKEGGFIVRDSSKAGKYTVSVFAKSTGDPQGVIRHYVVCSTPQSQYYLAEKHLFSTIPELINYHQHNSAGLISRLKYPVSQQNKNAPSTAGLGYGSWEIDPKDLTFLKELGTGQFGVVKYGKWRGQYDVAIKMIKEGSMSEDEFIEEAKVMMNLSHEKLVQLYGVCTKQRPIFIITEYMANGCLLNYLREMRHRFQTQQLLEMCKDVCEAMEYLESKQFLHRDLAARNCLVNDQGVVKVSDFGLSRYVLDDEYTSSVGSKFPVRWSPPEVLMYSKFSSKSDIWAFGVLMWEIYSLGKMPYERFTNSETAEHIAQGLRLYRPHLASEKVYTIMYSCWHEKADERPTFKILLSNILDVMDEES
# Read-outs that look alike come from different tables or passages of the source.
# Assays:
# [1] = biological target: BTK protein kinase (Homo sapiens (Human), UniProt Q06187); test: In vitro inhibition activity (enzymatic activity), ADP-Glo, BTK; format: biochemical; conditions: read-out: BTK protein kinase IC50; ATP 10 μM
# [2] = tested on: MV4-11 cell lines carrying FLT3/ITD mutant gene; conditions: 24 hours
# [3] = tested on: Signaling pathways of FLT3 in MV4-11 and MOLM-14 cell lines; conditions: treated for 4 hours
Structure (SMILES),IC50 [1] [µM],"number of cells captured in G0-G1 phase ([2]; MV4-11, 0.01 μM) [%]","number of cells captured in G0-G1 phase ([2]; MV4-11, 0.1 μM) [%]",C-Myc (degradation; for AC220 phosphorylation) [3],phosphorylation of STAT5 [3],phosphorylation of protein kinase FLT3 [3]
"CS(=O)(=O)NC1CCC(n2nc(-c3ccc(Oc4ccccc4)cc3)c3c(N)ncnc32)CC1 (stereo not drawn) [Compound 78, N-(4-(4-amino-3-(4-phenoxyphenyl)-1H-pyrazolo[3,4-d]pyrimidin-1-yl)cyclohexyl)methanesulfonamide]",0.343,–,–,–,–,–
"CC(C)(C)c1cc(NC(=O)Nc2ccc(-c3cn4c(n3)sc3cc(OCCN5CCOCC5)ccc34)cc2)no1 [AC220, reference compound]",–,90.49,96.53,strongly inhibited,strongly inhibited,strongly inhibited
